## Measured affinities in a library of Ab-14 heavy chain variants

Target peptide (SARS-CoV-2 spike, HR2 region): PDVDLGDISGINAS

Parent scFv Ab-14: VH joined to VL by the linker GGGGSGGGGSGGGGS. Changes lie in the heavy chain CDRs alone.
VH: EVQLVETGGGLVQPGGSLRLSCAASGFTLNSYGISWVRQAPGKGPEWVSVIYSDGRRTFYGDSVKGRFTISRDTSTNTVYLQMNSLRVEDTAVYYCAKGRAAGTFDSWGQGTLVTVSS
VL: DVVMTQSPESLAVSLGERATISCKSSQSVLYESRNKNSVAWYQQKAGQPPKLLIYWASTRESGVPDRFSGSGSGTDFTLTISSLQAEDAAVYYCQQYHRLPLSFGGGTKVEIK

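Phage display of a naive human antibody library on the peptide gave the parent. Library AAYL49 holds single substitutions and randomly drawn double and triple substitutions in the CDRs. AlphaSeq pools MATa yeast showing the antibodies with MATalpha yeast showing the peptide. The frequency of each diploid, read from paired DNA barcodes, reflects how well the two displayed proteins bind. A regression on co-assayed BCL2-family reference pairs converts the normalised counts of each replicate to an apparent Kd. Each pool was mated in three replicate cultures.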

Variants are written as CDR1, CDR2 and CDR3 of the heavy chain (limits as in the source). Parent: GFTLNSYGIS, VIYSDGRRTFYGDSVK, GRAAGTFDS.
This list gathers variants with a substitution at S63 (VH, numbered from residue 1).
Values are log10 of the apparent Kd in nM; lower means stronger binding.
Averages over replicates are reported, and they cover detected replicates only.
"nd" marks a missing value. The strain was present, yet no cells mated with the target were sequenced in any replicate, which points to weak or no binding.
Nonspecific signal, from three strains lacking the peptide, appeared in 15% of pairings of library AAYL49, centred on 4.06 (5% of these signals below 2.83); values are not corrected for it. Also given: how often the same scFv was detected with the empty control strains.

Variant GFTLNSYGSS, VIYSDGRRTFYGDNVK, GRAAGTFDS showed nd (0 of 3 replicates; controls 0 of 9).
Variant TFTLNSYGIM, VIYSDGRRTFYGDLVK, GRAAGTFDS showed nd (0 of 3 replicates; controls 0 of 9).
Variant GFTLNSYGFS, VIYSDGRRCFYGDEVK, GRAAGTFDS showed 2.09 (3 of 3 replicates; controls 0 of 9).
Variant GFTLNSYGIS, VIYSDGRRTFQGDNVK, GRALGTFDS showed 3.64 (1 of 3 replicates; controls 2 of 9).
Variant GFTLNSYGIS, VIVSDGRRTFYGDMVK, GRAAGTFQS showed 4.14 (1 of 3 replicates; controls 2 of 9).
Variant GFTLNSFGIS, VIYSDGIRTFYGDYVK, GRAAGTFDS showed 3.11 (3 of 3 replicates; controls 7 of 9).
Variant GFGLNSYGIS, VIYSDGRRTFYGDWVI, GRAAGTFDS showed nd (0 of 3 replicates; controls 0 of 9).
Variant GFTLHSYGIS, VIYSDTRRTFYGDEVK, GRAAGTFDS showed nd (0 of 3 replicates; controls 1 of 9).
Variant GQTLNSYGIS, VIYSDWRRTFYGDIVK, GRAAGTFDS showed 4.16 (1 of 3 replicates; controls 1 of 9).
Variant GFTPNSYGIS, VIYSDGRRTFYGDCVK, GDAAGTFDS showed nd (0 of 3 replicates; controls 2 of 9).
Variant DFTLNSYGIS, VIYNDGRRTFYGDAVK, GRAAGTFDS showed 5.69 (1 of 3 replicates; controls 0 of 9).
Variant GFTLNSYGIS, VCYSDGRRTFYGDAYK, GRAAGTFDS showed 5.11 (3 of 3 replicates; controls 4 of 9).
Variant GFTLDSYDIS, VIYSDGRRTFYGDTVK, GRAAGTFDS showed nd (0 of 3 replicates; controls 1 of 9).
Variant GFTLNKYGIS, VIYSDGRRTFYGDTVK, GRAAGTFDG showed 1.90 (3 of 3 replicates; controls 1 of 9).
Variant GFTLNSYGIS, VIYSDGRRTFYGWPVK, GRAAGTFDP showed nd (0 of 3 replicates; controls 2 of 9).
Variant GFTLNSYGIS, VIYSDGRRTCYGDKVK, GRAAGCFDS showed nd (0 of 3 replicates; controls 0 of 9).
Variant GFTLNSYGIS, VIYSDGRSTFYGDRVK, GVAAGTFDS showed nd (0 of 3 replicates; controls 1 of 9).
Variant GFTFNSYSIS, VIYSDGRRTFYGDVVK, GRAAGTFDS showed nd (0 of 3 replicates; controls 0 of 9).
Variant GFTANSYGIS, VGYSDGRRTFYGDLVK, GRAAGTFDS showed nd (0 of 3 replicates; controls 4 of 9).
Variant GFTLNSYGIS, VIYFDGRRTFYGDKVK, GRAAGAFDS showed nd (0 of 3 replicates; controls 0 of 9).
Variant GFTLNSYGQS, VIYSDGRRTFYGDWVK, GRAANTFDS showed nd (0 of 3 replicates; controls 1 of 9).
Variant GFTLNSYGIV, VIYQDGRRTFYGDGVK, GRAAGTFDS showed nd (0 of 3 replicates; controls 1 of 9).
Variant GFTLNSYGIS, VIYEDGRRTFYGDHVA, GRAAGTFDS showed 4.31 (1 of 3 replicates; controls 0 of 9).
Variant GFTLNSYGIS, VIYSDERRTFYGDKVK, GRAAGLFDS showed 3.51 (2 of 3 replicates; controls 0 of 9).
Variant GFTYNSYGIS, VIYSDGRRTFYGDAVK, GRAAGRFDS showed 4.93 (2 of 3 replicates; controls 3 of 9).
Variant GFTLNSYGIS, VIYSDGRQTFYGDIVK, GRAAGTFSS showed nd (0 of 3 replicates; controls 0 of 9).
Variant GFTLNSYGIS, VIYSDGRRTFYGDDVK, TRAAGTFPS showed 0.45 (3 of 3 replicates; controls 1 of 9).
Variant GLTLMSYGIS, VIYSDGRRTFYGDMVK, GRAAGTFDS showed 2.23 (3 of 3 replicates; controls 0 of 9).
Variant GFTLNSYGIS, VITSDGRRTFYGDYVK, GRPAGTFDS showed 3.52 (2 of 3 replicates; controls 3 of 9).
Variant GFTLNSYGIS, VKYSDGRRTFYGDIVK, GRAAGTFVS showed 4.89 (2 of 3 replicates; controls 5 of 9).
Variant GFTLNSLGIS, VGYSDGRRTFYGDTVK, GRAAGTFDS showed nd (0 of 3 replicates; controls 2 of 9).
Variant GFTLNSYGIS, VIYSDGRRCFYGDLVK, GRQAGTFDS showed 3.09 (2 of 3 replicates; controls 2 of 9).
Variant GFTLGSYGDS, VIYSDGRRTFYGDIVK, GRAAGTFDS showed nd (0 of 3 replicates; controls 0 of 9).
Variant GFTLNSYGIS, VIYSDGRRTFYGDTVW, GRWAGTFDS showed 2.38 (3 of 3 replicates; controls 2 of 9).

Top 6 of the variants detected in all replicates, tightest first:

CDR-H1	CDR-H2	CDR-H3	mean, log10 nM	detected	signal with controls
GFTLNSYGIS	VIYSDGRRTFYGDDVK	TRAAGTFPS	0.45	3/3	1/9
GFTLNKYGIS	VIYSDGRRTFYGDTVK	GRAAGTFDG	1.90	3/3	1/9
GFTLNSYGFS	VIYSDGRRCFYGDEVK	GRAAGTFDS	2.09	3/3	0/9
GLTLMSYGIS	VIYSDGRRTFYGDMVK	GRAAGTFDS	2.23	3/3	0/9
GFTLNSYGIS	VIYSDGRRTFYGDTVW	GRWAGTFDS	2.38	3/3	2/9
GFTLNSFGIS	VIYSDGIRTFYGDYVK	GRAAGTFDS	3.11	3/3	7/9

Values reported by Engelhart et al. 2022, doi:10.1038/s41597-022-01779-4 (FLAb copy).